IC50 data for 2 substances are collected here from patent US20090175786A1.

The chains behind the UniProt entries cited, without tags or fusion partners. Where a name states a change or a piece, a line headed by the entry shows the natural chain unless it says otherwise.
UniProt P30550: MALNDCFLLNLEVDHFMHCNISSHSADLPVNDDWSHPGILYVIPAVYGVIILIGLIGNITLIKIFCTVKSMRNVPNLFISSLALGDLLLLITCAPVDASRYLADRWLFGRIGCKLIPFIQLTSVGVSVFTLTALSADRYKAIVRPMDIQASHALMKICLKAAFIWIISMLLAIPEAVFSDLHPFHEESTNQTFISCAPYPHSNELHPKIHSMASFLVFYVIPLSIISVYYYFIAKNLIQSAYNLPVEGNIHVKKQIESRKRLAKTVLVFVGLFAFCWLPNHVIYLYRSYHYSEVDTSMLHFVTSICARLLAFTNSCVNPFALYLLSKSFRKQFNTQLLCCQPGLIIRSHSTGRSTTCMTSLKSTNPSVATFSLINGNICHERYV
UniProt P32247: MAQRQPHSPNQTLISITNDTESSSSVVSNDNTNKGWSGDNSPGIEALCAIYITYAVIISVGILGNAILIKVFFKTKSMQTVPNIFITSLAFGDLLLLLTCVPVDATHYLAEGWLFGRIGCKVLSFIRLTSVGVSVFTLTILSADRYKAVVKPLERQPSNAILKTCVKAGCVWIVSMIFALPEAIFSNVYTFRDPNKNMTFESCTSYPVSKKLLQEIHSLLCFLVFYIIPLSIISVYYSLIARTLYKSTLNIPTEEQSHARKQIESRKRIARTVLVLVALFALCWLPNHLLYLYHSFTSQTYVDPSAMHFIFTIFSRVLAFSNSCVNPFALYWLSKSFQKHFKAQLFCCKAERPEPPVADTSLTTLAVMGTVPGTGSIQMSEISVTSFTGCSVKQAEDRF

The target of experiment [1] is gastrin releasing peptide receptor (GRP-R), human (human) (UniProt P30550). The experiment in a line: 125I-BBN competition, PC3 cells.
The target of experiment [2] is bombesin receptor subtype 3 (BB3-R), human (human) (UniProt P32247). Kind of experiment: displacement of 125I-universal ligand, human tumour sections. On the technique in general: Loss of bound radioactivity is the signal in a displacement assay; it reports binding, not function.

As to “DO3A-monoamide-G-Abz4-QWAVaHLM-NH2 (peptide)”, the IC50 in experiment [1] is 13 nM. That is a double-digit nanomolar value. For “[DTyr^6, βAla^11, Phe^13, Nle^14]-BBN(6-14) (peptide)”, the IC50 in experiment [2] was found to be 1.1 nM.

One may read the IC50 as the concentration that gives 50% inhibition.
